The values below are quoted from earlier work in patent publication US8664182B2, “Methods of inhibiting cancer cell growth with HDAC inhibitors and methods of screening for HDAC10 inhibitors” (Duke University, priority 2008, dated 2014).

The chains behind the UniProt entries cited, without tags or fusion partners. Where a name states a change or a piece, a line headed by the entry shows the natural chain unless it says otherwise.
UniProt Q969S8: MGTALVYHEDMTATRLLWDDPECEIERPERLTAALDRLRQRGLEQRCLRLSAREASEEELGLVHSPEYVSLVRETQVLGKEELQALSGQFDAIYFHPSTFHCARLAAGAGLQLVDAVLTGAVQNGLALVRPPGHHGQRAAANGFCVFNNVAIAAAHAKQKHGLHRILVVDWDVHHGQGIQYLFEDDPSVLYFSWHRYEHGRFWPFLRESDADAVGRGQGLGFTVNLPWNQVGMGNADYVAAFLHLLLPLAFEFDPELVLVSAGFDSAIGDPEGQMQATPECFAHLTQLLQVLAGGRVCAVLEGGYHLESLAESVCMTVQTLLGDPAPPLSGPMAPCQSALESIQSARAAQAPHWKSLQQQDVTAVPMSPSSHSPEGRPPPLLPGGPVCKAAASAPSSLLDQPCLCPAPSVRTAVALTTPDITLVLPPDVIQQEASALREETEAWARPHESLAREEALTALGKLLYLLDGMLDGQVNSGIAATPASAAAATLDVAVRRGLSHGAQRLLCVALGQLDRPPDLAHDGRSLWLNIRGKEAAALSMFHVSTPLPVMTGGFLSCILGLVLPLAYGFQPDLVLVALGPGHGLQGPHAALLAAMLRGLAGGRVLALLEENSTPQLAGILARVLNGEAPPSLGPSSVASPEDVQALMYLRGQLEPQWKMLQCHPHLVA

The data set addresses HDAC10 (Homo sapiens, UniProt Q969S8). To be noted: Hess-Stumpp et al. (2007); cited from earlier work.

Each structure is given as a SMILES string.

With `Nc1ccccc1NC(=O)c1ccc(CNC(=O)OCc2cccnc2)cc1` [MS-275], the “inhibition of HDAC10” value is given as “does not effectively inhibit HDAC10”.
